Test results taken from PubChem BioAssay (NCATS).
This is a selection; strong and weak results do not stand in their true shares. Inconclusive results are not listed. Activity calls are given as the source filed them. Unless noted, calls follow the shape of the dose curve; as a rule, active = well fitted curve in the direction sought with a large enough effect; inconclusive = small, poorly fitted or top-dose-only effect, or another doubt; inactive = no such curve, though single readings can be large; an effect the other way counts as inactive or inconclusive.

By UniProt entry, the sequences of proteins in these tests, tags left out. Where a name states a change or a piece, a line headed by the entry shows the natural chain unless it says otherwise.
UniProt P16066: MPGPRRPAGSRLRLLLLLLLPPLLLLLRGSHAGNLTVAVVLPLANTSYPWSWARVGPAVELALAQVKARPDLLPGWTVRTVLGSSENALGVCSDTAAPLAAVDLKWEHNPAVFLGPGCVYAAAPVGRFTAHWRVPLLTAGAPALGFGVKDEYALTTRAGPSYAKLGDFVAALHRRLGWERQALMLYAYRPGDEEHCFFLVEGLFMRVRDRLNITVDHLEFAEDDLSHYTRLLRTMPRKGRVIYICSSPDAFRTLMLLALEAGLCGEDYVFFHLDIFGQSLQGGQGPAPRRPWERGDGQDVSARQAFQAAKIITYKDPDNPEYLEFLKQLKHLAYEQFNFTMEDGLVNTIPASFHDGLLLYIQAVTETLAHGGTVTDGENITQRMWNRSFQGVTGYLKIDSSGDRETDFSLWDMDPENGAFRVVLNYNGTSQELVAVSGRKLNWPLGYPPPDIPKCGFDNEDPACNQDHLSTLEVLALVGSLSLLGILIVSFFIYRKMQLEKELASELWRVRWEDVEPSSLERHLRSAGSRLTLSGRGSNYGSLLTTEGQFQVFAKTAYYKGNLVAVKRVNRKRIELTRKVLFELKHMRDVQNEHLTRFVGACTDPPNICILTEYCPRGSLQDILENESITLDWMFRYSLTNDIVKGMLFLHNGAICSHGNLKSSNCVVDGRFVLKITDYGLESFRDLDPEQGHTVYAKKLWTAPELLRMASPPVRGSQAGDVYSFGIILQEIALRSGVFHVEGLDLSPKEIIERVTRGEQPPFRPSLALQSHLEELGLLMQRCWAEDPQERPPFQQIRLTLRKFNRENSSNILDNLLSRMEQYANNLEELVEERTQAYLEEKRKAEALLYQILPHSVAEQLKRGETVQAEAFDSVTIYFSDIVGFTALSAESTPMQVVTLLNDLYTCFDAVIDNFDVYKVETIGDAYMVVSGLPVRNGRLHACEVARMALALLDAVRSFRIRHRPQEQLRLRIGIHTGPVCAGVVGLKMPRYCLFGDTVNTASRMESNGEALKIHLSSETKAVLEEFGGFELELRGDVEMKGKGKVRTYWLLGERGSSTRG
UniProt P20594: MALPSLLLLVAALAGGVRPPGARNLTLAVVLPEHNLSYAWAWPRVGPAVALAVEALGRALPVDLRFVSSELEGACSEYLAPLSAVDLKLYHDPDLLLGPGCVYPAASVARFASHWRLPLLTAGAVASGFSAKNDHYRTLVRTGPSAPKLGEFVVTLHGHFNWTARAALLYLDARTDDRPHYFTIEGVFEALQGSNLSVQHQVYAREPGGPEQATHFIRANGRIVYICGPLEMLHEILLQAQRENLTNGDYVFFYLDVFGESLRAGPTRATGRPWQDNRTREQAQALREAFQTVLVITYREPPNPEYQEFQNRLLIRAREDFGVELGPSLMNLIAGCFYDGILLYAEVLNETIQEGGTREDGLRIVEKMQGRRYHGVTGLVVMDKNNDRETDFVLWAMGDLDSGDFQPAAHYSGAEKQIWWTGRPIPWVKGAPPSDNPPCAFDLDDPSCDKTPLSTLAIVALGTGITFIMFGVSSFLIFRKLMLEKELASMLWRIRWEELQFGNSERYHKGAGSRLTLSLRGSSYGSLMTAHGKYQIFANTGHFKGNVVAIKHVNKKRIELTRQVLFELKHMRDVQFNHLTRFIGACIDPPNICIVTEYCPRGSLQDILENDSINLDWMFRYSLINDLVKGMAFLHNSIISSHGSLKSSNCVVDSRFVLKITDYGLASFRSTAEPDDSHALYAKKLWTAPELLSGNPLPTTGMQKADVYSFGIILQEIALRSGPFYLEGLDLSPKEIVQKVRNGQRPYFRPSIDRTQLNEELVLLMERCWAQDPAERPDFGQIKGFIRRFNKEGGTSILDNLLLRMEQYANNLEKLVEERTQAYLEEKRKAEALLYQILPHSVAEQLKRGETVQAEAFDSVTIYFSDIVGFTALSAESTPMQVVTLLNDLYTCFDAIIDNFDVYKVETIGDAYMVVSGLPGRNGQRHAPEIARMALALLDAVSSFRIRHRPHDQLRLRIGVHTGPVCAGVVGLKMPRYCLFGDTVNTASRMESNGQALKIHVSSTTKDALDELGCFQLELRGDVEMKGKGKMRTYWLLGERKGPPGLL
UniProt P78324, whole entry, looked up: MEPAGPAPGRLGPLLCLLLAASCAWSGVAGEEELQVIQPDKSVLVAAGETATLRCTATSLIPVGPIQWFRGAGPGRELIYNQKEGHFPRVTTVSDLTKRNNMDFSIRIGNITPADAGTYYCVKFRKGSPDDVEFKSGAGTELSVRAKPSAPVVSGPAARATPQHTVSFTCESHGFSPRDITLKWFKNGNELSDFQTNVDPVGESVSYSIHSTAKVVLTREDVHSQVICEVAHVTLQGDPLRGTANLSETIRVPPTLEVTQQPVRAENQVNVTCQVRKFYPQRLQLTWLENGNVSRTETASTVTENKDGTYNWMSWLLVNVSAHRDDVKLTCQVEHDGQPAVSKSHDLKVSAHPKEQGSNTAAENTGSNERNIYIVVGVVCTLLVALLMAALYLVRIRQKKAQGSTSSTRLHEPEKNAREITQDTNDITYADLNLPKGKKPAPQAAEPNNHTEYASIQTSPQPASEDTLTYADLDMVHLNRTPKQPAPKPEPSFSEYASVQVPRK
UniProt Q08722, whole entry, looked up: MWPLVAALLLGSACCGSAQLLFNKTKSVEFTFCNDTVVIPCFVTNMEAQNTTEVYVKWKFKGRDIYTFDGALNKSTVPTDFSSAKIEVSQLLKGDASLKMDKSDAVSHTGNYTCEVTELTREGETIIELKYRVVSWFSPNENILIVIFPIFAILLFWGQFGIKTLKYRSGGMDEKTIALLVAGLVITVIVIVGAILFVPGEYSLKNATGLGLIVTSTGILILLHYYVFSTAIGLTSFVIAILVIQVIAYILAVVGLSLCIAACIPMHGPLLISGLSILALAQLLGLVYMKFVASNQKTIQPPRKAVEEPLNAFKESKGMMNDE
UniProt Q03431: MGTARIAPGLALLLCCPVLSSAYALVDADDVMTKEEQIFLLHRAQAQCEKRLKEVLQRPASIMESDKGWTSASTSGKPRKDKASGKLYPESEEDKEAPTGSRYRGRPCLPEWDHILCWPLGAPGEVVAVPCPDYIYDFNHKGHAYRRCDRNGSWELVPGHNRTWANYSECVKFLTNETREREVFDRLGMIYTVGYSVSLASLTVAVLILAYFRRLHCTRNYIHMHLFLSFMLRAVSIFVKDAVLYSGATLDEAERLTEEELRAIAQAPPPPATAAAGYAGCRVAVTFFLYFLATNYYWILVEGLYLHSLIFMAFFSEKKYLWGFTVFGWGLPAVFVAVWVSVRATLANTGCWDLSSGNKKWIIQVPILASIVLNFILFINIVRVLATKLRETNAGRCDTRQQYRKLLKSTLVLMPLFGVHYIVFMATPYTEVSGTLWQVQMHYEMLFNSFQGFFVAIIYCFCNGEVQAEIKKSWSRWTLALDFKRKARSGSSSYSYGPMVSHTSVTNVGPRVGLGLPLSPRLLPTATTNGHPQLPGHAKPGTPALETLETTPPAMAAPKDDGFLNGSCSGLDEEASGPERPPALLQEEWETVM
UniProt Q9BV86: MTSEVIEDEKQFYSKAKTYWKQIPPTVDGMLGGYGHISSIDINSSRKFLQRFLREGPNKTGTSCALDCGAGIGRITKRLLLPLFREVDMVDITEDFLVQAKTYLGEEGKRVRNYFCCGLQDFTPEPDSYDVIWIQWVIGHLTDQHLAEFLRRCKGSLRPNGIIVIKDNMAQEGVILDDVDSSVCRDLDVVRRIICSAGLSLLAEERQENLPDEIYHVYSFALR
UniProt Q9GZX7: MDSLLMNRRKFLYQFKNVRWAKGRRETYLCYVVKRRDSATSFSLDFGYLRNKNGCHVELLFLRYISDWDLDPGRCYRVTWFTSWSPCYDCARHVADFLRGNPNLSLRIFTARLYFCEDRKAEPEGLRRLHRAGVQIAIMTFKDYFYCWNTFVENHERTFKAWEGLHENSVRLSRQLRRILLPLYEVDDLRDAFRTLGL
UniProt P00784: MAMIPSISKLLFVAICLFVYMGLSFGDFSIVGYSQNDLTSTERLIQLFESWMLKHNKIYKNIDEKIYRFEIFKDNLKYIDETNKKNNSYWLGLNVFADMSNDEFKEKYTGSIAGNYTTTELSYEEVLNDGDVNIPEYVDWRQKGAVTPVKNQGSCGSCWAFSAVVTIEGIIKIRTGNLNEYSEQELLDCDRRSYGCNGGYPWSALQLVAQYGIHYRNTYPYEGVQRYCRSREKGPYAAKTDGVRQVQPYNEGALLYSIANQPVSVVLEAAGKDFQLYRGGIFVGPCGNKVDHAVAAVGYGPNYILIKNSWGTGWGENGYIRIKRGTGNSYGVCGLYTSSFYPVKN
UniProt C7C422: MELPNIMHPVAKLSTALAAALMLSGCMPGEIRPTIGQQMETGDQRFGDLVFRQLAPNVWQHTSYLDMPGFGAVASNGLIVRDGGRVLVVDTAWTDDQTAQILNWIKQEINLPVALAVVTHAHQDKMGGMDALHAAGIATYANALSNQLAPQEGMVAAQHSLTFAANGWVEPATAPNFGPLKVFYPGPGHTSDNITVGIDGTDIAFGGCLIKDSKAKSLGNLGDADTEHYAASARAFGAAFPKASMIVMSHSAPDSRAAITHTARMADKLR
UniProt P36969, whole entry, looked up: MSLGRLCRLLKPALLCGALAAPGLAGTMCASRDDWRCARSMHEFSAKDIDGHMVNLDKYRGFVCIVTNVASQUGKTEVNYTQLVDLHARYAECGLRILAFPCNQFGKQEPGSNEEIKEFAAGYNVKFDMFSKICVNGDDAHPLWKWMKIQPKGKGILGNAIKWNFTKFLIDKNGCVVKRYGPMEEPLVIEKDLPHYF

Legend:
[1] = molecular target: Atrial natriuretic peptide receptor 1 (Homo sapiens) (UniProt P16066); experiment: Natriuretic polypeptide receptor (hNpr1) antagonism - Pilot screen (AID 1347049; calls by dose curve;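 also: agonist-evoked cGMP luminescence read 20 min after hNppA addition; % is scaled to controls: 0 for no effect and ±100 for the full control effect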); conditions: hNpr1 cells, antagonist mode cGMP read-out; at 57.5 µM (top of the series)
How it was run: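 Readout is cGMP-driven firefly luciferase luminescence in HEK293 cells carrying hNpr1 and a PDE5-domain GloSensor, read before and 20 min after 0.1 nM hNppA stimulation. Cells had 2% substrate reagent for 2 h and test compound for 30 min.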

[2] = molecular target: Atrial natriuretic peptide receptor 2 (Homo sapiens) (UniProt P20594); experiment: Natriuretic polypeptide receptor (hNpr2) antagonism - Pilot subtype selectivity assay (AID 1347050; calls by dose curve; also: % is scaled to controls: 0 for no effect and ±100 for the full control effect); conditions: NPR2-expressing cells, cGMP antagonist-mode read-out; at 38.3 µM (top of the series)
How it was run: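 Pilot selectivity screen against hNpr2: HEK293 cGMP-sensor cells are treated with LOPAC1280 compounds, then with hNppC peptide at 1 nM final. The cGMP-driven luminescence change over 20 min at room temperature is the read-out.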

[3] = molecular target: T1, Tyrosine-protein phosphatase non-receptor type substrate 1 (Homo sapiens) + Leukocyte surface antigen CD47 (Homo sapiens) (UniProt P78324+Q08722); experiment: CD47-SIRPalpha protein protein interaction - LANCE assay qHTS validation (AID 1347057; active = well fitted curve in the direction sought with a large enough effect in the signal ratio, with a control signal flat, not every such curve was filed as active; the % refers to the signal ratio; also: 0% is about no effect); conditions: Recombinant CD47-His / biotin-SIRPalpha, TR-FRET ratio; at 38.3 µM (top of the series)
How it was run: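 First, His-tagged CD47 and Eu-labelled anti-His antibody met the compound for 30 min; next, site-specifically biotinylated SIRPalpha was added for 30 min; finally streptavidin-APC was added before reading the TR-FRET ratio.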

[4] = molecular target: T1, Tyrosine-protein phosphatase non-receptor type substrate 1 (Homo sapiens) + Leukocyte surface antigen CD47 (Homo sapiens); experiment: CD47-SIRPalpha protein protein interaction - HTRF assay qHTS validation (AID 1347058; active = well fitted curve in the direction sought with a large enough effect in the signal ratio, not every such curve was filed as active; the % refers to the signal ratio;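 also: recombinant soluble extracellular CD47 with His tag and biotinylated SIRPalpha domains; 0% is about no effect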); conditions: TR-FRET HTRF CD47-His / biotin-SIRPalpha binding, ratio 665/615; at 38.3 µM (top of the series)
How it was run: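 TR-FRET read (Ch1/Ch2 ratio) of soluble extracellular CD47 and Avi-biotinylated SIRPalpha domains in PBS pH 7.4 with 0.05% IGEPAL; 7-point compound titration. Sequential 30 min room-temperature steps; non-biotinylated SIRPalpha as control inhibitor.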

[5] = molecular target: T1, Tyrosine-protein phosphatase non-receptor type substrate 1 (Homo sapiens) + Leukocyte surface antigen CD47 (Homo sapiens); experiment: CD47-SIRPalpha protein protein interaction - Alpha assay qHTS validation (AID 1347059); conditions: AlphaScreen CD47-His/biotin-SIRPalpha binding, LOPAC; at 38.3 µM (top of the series);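 also: bead proximity luminescence from CD47 binding SIRPalpha after compound preincubation with SIRPalpha; % is scaled to controls: 0 for no effect and ±100 for the full control effect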
How it was run: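 Binding is measured by AlphaScreen proximity: Ni-NTA acceptor beads capture His-CD47, streptavidin donor beads capture biotin-SIRPalpha. Each of three additions (SIRPalpha with compound, CD47, beads) incubates 30 min at room temperature protected from light.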

[6] = molecular target: Parathyroid hormone/parathyroid hormone-related peptide receptor (Homo sapiens) (UniProt Q03431); experiment: qHTS for PTHR1 Agonists: Optimization Screen against the NCGC LOPAC library (AID 1347079); conditions: HEK293 GP2 PTHR1 GloSensor cAMP luminescence, 1 h; at 57.1 µM (top of the series);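 also: GloSensor cAMP luminescence in HEK-293 GP2 cells expressing human PTHR1 with IBMX; 0% is about no effect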
How it was run: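 Agonist readout: GloSensor cAMP luminescence, read after 15 min at room temperature. HEK-293-derived GP2 line carries PTHR1; compounds tested as a titration for 1 hr at 37C in presence of IBMX. M-PTH (1-15) served as control.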

[7] = molecular target: N-terminal Xaa-Pro-Lys N-methyltransferase 1 (Homo sapiens) (UniProt Q9BV86); experiment: qHTS Assay for Inhibitors of N-terminal methyltransferase 1 (NTMT1): LOPAC validation of the NTMT1 SAHH-coupled ThioGlo3 Assay (AID 1347143); conditions: recombinant NTMT1, SAHH-coupled ThioGlo3 fluorescence; at 114 µM (top of the series);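 also: SAH from peptide methylation measured as thiol fluorescence via SAHH coupling and ThioGlo3; % is scaled to controls: 0 for no effect and ±100 for the full control effect; nearly all actives have a fitted effect of over 70% in size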
How it was run: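 Inhibition of NTMT1 methylation of peptide SPKRIA is followed by converting SAH with SAHH and labelling the released thiol with ThioGlo3. Plates are read at 340/450nm before and 30 min after reagent addition, both at room temperature.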

[8] = qHTS to identify inhibitors of the type 1 interferon - major histocompatibility complex class I in skeletal muscle: primary screen against the NCATS LOPAC collection (AID 1347405); conditions: iHSKM muscle cells, IFN-b-induced MHC-I HiBiT luminescence, 24 h; at 45.9 µM (top of the series);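 also: lytic HiBiT luminescence reporting HLA-B protein level; % is scaled to controls: 0 for no effect and ±100 for the full control effect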
How it was run: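 CRISPR-engineered immortalized human myoblasts (C25cl48) with HiBiT fused to endogenous HLA-B*08:01, stimulated with 4 ng/ml IFN-beta. LOPAC compounds tested as a 7-point 1:4.3 titration (top 46 uM final), 24 h at 37 C; lytic HiBiT luminescence read.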

[9] = qHTS for inhibitors of adenylyl cyclases using a fission yeast platform: a pilot screen against the NCATS LOPAC library (AID 1347410);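 also: plate controls were DMSO vehicle for no effect and DPI positive control for full effect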; conditions: S. pombe CHP2027, fbp1-GFP fluorescence, 18 h, yeast expressing mammalian AC9 and human GNAS; at 57.5 µM (top of the series)
How it was run: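 Read-out: fbp1-GFP fluorescence by laser scanning cytometry (488 nm laser), a gain of signal when AC/cAMP-PKA signalling is inhibited. Strain CHP2027 expressing AC9, GNAS and PDE4D2; compounds at up to 57 µM; 18 h, 30C.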

[10] = Validation qHTS assay for inhibitors of Activation Induced Cytidine Deaminase (AID): UDG Counterscreen signal (AID 1347427); conditions: biochemical UDG counterscreen, fluorescence signal; at 115 µM (top of the series); also: 0% is about no effect
How it was run: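 Counterscreen read of UDG activity (2 U/mL, 4/3x) in the FRET deamination format with AID (1 uM, 4/3x), DJC20/DJC23 substrates (250 nM, 4x), 4 h at room temperature. NaOH stop, fluorescence at 560 ex/665 em.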

[11] = molecular target: Single-stranded DNA cytosine deaminase (Homo sapiens) (UniProt Q9GZX7); experiment: Validation qHTS assay for inhibitors of Activation Induced Cytidine Deaminase (AID): AID signal (AID 1347429); conditions: Recombinant AID, FRET ssDNA deamination with UDG, fluorescence; at 115 µM (top of the series); also: % is scaled to controls: 0 for no effect and ±100 for the full control effect
How it was run: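 FRET deamination assay: 1 uM AID (4/3x stock) with UDG, compound up to 114 uM, then 250 nM DJC20/DJC23 substrate (4x stock) for 4 hr at room temperature. NaOH added, 30 min; fluorescence read 540/590 nm.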

[12] = Primary qHTS for small molecule stabilizers of the endoplasmic reticulum resident proteome: Secreted ER Calcium Modulated Protein (SERCaMP) assay (AID 1508630); conditions: SH-SY5Y GLuc-SERCaMP secretion, thapsigargin, luminescence; at 38.4 µM (top of the series); also: % is scaled to controls: 0 for no effect and ±100 for the full control effect
How it was run: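 GLuc-SERCaMP-expressing SH-SY5Y cells, pretreated 16 h with compound, are challenged with thapsigargin to empty ER calcium stores; after 4 h, coelenterazine is added directly to the medium and luminescence is imaged.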

Papain (Carica papaya) = Papain (Carica papaya) (UniProt P00784); experiment: Primary qHTS assay for inhibitors of the protease papain (AID 1645873); conditions: papain Z-FR-AMC cleavage, AMC fluorescence; at 49.8 µM (top of the series)
[13] = molecular target: Metallo-beta-lactamase type 2 (Klebsiella pneumoniae) (UniProt C7C422); experiment: qHTS to identify inhibitors of the New Delhi Metallo-beta-lactamase (NDM): assay validation screen against the NCATS LOPAC Collection (AID 1794843); conditions: NDM-1 enzyme, nitrocefin hydrolysis, absorbance 485 nm; at 38.4 µM (top of the series); also: % is scaled to controls: 0 for no effect and ±100 for the full control effect
How it was run: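 Absorbance at 485 nm from nitrocefin turnover (50 uM solution added), read at plateau, gives the read-out. Compounds in DMSO were incubated first with 2 nM final NDM-1 in pH 7.0 HEPES buffer containing 1 uM ZnSO4 and 0.01% Tween20.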

[14] = molecular target: Phospholipid hydroperoxide glutathione peroxidase GPX4 (Homo sapiens) (UniProt P36969); experiment: Primary qHTS Assay for Inhibitors of Recombinant Selenoprotein Glutathione Peroxidase 4 (GPX4) (AID 1845192); conditions: recombinant GPX4, GR-coupled NADPH fluorescence, 15 min; activity change, negative = inhibition: at 50 µM (top of the series); also: % is scaled to controls: 0 for no effect and ±100 for the full control effect; nearly all actives have a fitted effect of over 65% in size
How it was run: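 NADPH consumption, followed by fluorescence at 340/450 nm between 0 and 15 min, reports GPX4 activity via coupled glutathione reductase (100 nM). Enzyme 200 nM was pre-exposed to compound 30 min; 0.5 mM cumene hydroperoxide and 1 mM GSH served as substrates.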

CN(C(=O)Cc1ccccc1)[C@@H]1CC[C@]2(CCCO2)C[C@H]1N1CCCC1
inactive: activity change, negative = inhibition [1] 10.9% | activity change, negative = inhibition [2] 0.0328% | activity change, negative = inhibition [3] 4.29% | activity change, negative = inhibition [4] 1.06% | activity change, negative = inhibition [5] 0.472% | activation [6] 36.1% | activity change, negative = inhibition [7] -2.78% | activity change, negative = inhibition [8] -22.4% | activity, positive = inhibition (GFP gain) [9] -0.438% | activity, negative = inhibition [10] 12.4% | activity change, negative = inhibition [11] 34.1% | activity change, negative = inhibition [12] -10.1% | activity change, negative = inhibition (Papain (Carica papaya)) -8.73% | activity change, negative = inhibition [13] -6.82% | activity change, negative = inhibition [14] -23.6%
